# Laboratory results published in patent US20240174645A1, “COMPOUND, PRODUCTION METHOD THEREFOR, COMPLEX, AND SHORT WAVELENGTH INFRARED FLUORESCENT AGENT” (RIKEN, priority 2021, published 2024).
# Test system: HER2 overexpression breast cancer cells (KPL-4) tumor
# Assay: Apoptosis (cell death) imaging of breast cancer after Kadcyla
# Format: in vivo, nude mouse
# Details: 0.1 mL of Kadcyla (2 mg/mL) tail vein
# Description: 0.1 mL of Kadcyla (2 mg/mL) was injected, through tail vein, into the nude mouse to which HER2 overexpression breast cancer cells (KPL-4) were transplanted. After three days, the shortwave infrared fluorescent agent 12 (complex 8 having a concentration of 0.5 mg/mL) or the shortwave infrared fluorescent agent 13 (complex 9 having a concentration of 0.5 mg/mL) was injected into the tumor part. The next day, shortwave infrared fluorescence imaging of the breast cancer tumor of the cancer-bearing mouse was performed in vivo. The fluorescence images were captured at an excitation wavelength of 905 nm and a fluorescence detection wavelength of 1000 nm or more. The intensity of the excitation light was 20 mW/cm^2, and the exposure times were 5 seconds (shortwave infrared fluorescent agent 12) and 10 seconds (shortwave infrared fluorescent agent 13). Photographs representing in vivo bright-field images and in vivo shortwave infrared fluorescence images, with the shortwave infrared fluorescent agent 12 and the shortwave infrared fluorescent agent 13, of the breast cancer tumors in the nude mouse into which Kadcyla was injected (left) and the nude mouse into which Kadcyla was not injected (right) are shown in FIG. 18.
# 0.1 mL of Kadcyla (2 mg/mL) was injected, through tail vein, into the nude mouse to which HER2 overexpression breast cancer cells (KPL-4) were transplanted. […] After 3 days, 5 days, and 11 days, shortwave infrared fluorescence imaging of the breast cancer tumor of the cancer-bearing mouse was performed in vivo. The fluorescence images were captured at an excitation wavelength of 905 nm and a fluorescence detection wavelength of 1000 nm or more. […] Photographs representing in vivo bright-field images and in vivo shortwave infrared fluorescence images, after specific periods of time elapsed, of the breast cancer tumor in the nude mouse with the shortwave infrared fluorescent agent 13, into which Kadcyla was injected, are shown in FIG. 19.
# [1] = agent 13 imaging after 3 days, 5 days, and 11 days
substance,measurement,setting,value
"Kadcyla: anti-HER2 antibody Tubulin polymerization inhibitor complex, an antibody-drug complex (ADC)",apoptosis (cell death) of tumor cells,"agent 12 or 13 into tumor after three days, imaged the next day",apoptosis (cell death) of the tumor cells was induced
same,"apoptosis (cell death) of tumor cells, over time",[1],induced apoptosis (cell death) of tumor cells
same,size of the tumor,[1],caused the size of the tumor to be small
